Source: patent publication US20180318378A1 (KOREA ATOMIC ENERGY RESEARCH INSTITUTE, published 2018)

Target: T1, AKT (serine/threonine protein kinase) (UniProt P31749 1-480, limits assumed)
T1 construct: AKT of the cells themselves in the co-immunoprecipitation; also called AKT1
T1 sequence (looked up): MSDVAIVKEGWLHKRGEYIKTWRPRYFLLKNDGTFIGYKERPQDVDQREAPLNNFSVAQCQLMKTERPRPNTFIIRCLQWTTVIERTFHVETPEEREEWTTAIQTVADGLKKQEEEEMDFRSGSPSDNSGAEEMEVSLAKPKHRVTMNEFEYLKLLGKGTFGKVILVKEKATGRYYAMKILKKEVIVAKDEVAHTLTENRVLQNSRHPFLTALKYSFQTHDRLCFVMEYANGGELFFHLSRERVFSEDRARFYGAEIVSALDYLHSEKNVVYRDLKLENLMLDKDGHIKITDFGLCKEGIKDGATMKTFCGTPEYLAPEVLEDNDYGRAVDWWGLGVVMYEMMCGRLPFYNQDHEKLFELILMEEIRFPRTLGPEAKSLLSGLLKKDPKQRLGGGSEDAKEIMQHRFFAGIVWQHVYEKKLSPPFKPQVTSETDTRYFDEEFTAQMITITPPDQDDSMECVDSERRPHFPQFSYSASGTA
Experiment: co-immunoprecipitation with TSPYL or AKT specific antibody, Western blotting
Description: To confirm the binding between TSPYL5 and AKT, the lung cancer cell line A549 or H460 was transfected with wild-type TSPYL5 or TSPYL5-120A, from which proteins were separated. TSPYL or AKT specific antibody was diluted at the ratio of 200:1, which was placed in a 4 rotator, followed by reaction for at least 12 hours. The prepared A+G agarose beads were added thereto, followed by further reaction for 5 hours. Centrifugation was performed at 2000 rpm, at 4° C., for 3 minutes. The supernatant was discarded and the remaining beads were washed with a protein extraction solution three times. The protein was heated at 95 and the protein binding was confirmed by Western blotting.

binding result: no binding
B1: TSPYL5-120A mutant (120th residue threonine substituted with alanine) (other, UniProt Q86VY4 1-417, looked up)
chain: MSGRSRGRKSSRAKNRGKGRAKARVRPAPDDAPRDPDPSQYQSLGEDTQAAQVQAGAGWGGLEAAASAQLLRLGEEAACRLPLDCGLALRARAAGDHGQAAARPGPGKAASLSERLAADAVFVGTAGTVGRPKNAPRVGNRRGPAGKKAPETCSTAGRGPQVIAGGRQKKGAAGENTSVSAGEEKKEERDAGSGPPATEGSMDTLENVQLKLENMNAQADRAYLRLSRKFGQLRLQHLERRNHLIQNIPGFWGQAFQNHPQLASFLNSQEKEVLSYLNSLEVEELGLARLGYKIKFYFDRNPYFQNKVLIKEYGCGPSGQVVSRSTPIQWLPGHDLQSLSQGNPENNRSFFGWFSNHSSIESDKIVEIINEELWPNPLQFYLLSEGARVEKGKEKEGRQGPGKQPMETTQPGVSQSN
notes: Expressed from the transfected vector in lung cancer cells; tested in cell lysate by co-immunoprecipitation; also called T120A-TSPYL5; TSPYL5-T120A
